This is a selection; strong and weak results do not stand in their true shares. Activity calls are given as the source filed them. Cut-off read from the data, not from the text of the source: active = inhibition above about 21%; inactive = the rest.
Target: Cathepsin B (Homo sapiens) (UniProt P07858)
Experiment: human cathepsin B inhibitors, primary screen, biochemical, fluorogenic substrate (AID 453);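 note: 0% = enzyme with no compound and 100% = no enzyme blank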
Settings: purified cathepsin B, fluorescence, hits give high values,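 tested at 10 µM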

| Compound | inhibition |
| --- | --- |
| N/C(=N\O)c1c(N)no[n+]1[O-] | inactive: -0.15% |
| CCC(CO)(C(=O)OC1CN2CCC1CC2)c1ccccc1 (stereo not given) | inactive: -0.8% |
| CCOc1ncccc1C(=O)NCC1(N2CCOCC2)CCCCC1 | inactive: 2.31% |
| O=C(OC1CN2CCC1CC2)C1c2ccccc2Oc2ccccc21 (stereo not given) | inactive: -0.4% |
| N#CC1(Nc2ccccc2)CCN(CCc2ccccc2)CC1 | inactive: 4.25% |
